Compound activity as filed in PubChem BioAssay.
ClpP mod: qHTS Assay for Activators of ClpP; Potency, µM (series often up to 57.5 µM); ATP-dependent Clp protease proteolytic subunit (Bacillus subtilis (strain 168)), P80244; AID 651965, 2013; actives 1.9% (n = 340,000); purified B. subtilis ClpP, FRET peptide cleavage, 20 min; active = well fitted falling curve with a large enough effect; inconclusive = small, poorly fitted or top-dose-only effect; inactive = no such curve, though single readings can be large or run the other way; note: the source files actives as falling curves though it sought activators and does not explain the sign; nearly all actives have a fitted effect of over 65% in size
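ClpP 10 microg/mL final, pH 8 Tris/KCl buffer with BSA, glycerol, Tween-20; compound pinned in; FRET-FV substrate; RT 20 min; Ex320/Em430; ΔFRET vs ADEP 5.8 microM, DMSO, no enzyme.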
miR-21 reporter: raises the signal of a miR-21 reporter; Potency, µM (doses to about 38.3 µM); HeLa miR-21 FLuc reporter, luciferase, 48 h; AID 2288; 340,000 tested, under 10 active; active = well fitted rising curve with a large enough effect; inconclusive = small, poorly fitted or top-dose-only effect; inactive = no such curve, though single readings can be large or run the other way;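 further: miR-21 action dims this reporter so a rising signal means less miR-21 action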
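HeLa cells stably expressing CMV-driven firefly luciferase with a downstream miR-21 binding sequence, endogenously expressing miR-21, were treated with titrations (up to about 40uM final) for 48 hours at 37 degree Celsius. Luciferase luminescence was read after lysis.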
Nrf2 inh: inhibitors of Nrf2 signaling. A549 ARE-Fluc reporter, luciferase luminescence, 18-24 h. Potency, µM (highest dose often 46 µM), hits mostly inhibitors. actives 2.1% (n = 360,000); note: nearly all actives have a fitted effect of over 60% in size
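Quantitative HTS in A549 cells stably bearing an antioxidant response element-firefly luciferase construct. Inhibition of Nrf2-driven transcription was scored by luminescence after 18-24 h of compound exposure at 37 °C.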
Nrf2 activator: activates Nrf2 signaling | AREc32 ARE-luciferase reporter (MCF7-derived line), luminescence, 24 h | Potency, µM (top dose mostly 46.1 µM), most hits filed as activators | actives 0.31% (n = 410,000); note: nearly all actives have a fitted effect of over 65% in size
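ARE-driven firefly luciferase activity in AREc32 cells measured after a 24 hr compound exposure at 37 deg C, using Steady-Glo reagent and a 30 min room-temperature hold.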
A549 tox: kills or reduces viability of A549 cells in Nrf2 counter-screen. A549 ARE-Fluc cells, CellTiter-Fluor viability, 18-24 h. Potency, µM (top dose mostly 46 µM), hits mostly inhibitors. actives 0.16% (n = 390,000). AID 504648
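Cytotoxicity counterscreen: CellTiter-Fluor fluorescence was measured in A549 ARE_Fluc cells after 18-24 h of compound exposure in a concentration series. The subsequent BugLite luminescent read reports ARE-luciferase activity.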
p53 reactivation: mutant p53 re-activation in reporter cells; H1299 p53-A138V BP100-luciferase reporter, luminescence, 24 h; Potency, µM (top dose mostly 92.2 µM), actives largely listed as activators; actives 0.063% (n = 320,000); note: nearly all actives have a fitted effect of over 45% in size
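p53-null H1299 cells stably carrying temperature-sensitive p53-A138V and a BP100-luciferase reporter were pinned with compounds (4-point, 1:5 series) and held 24 hrs at 37 deg C. Luminescence was read 10 min after detection reagent.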
Hits are given with their value; . = inactive; ? = inconclusive; / = not tested or not shown; ! = not confirmed by another sample. Compounds with a hit are over-represented: about 3.7% of the library has one in this group of screens. Unless noted, calls come from the whole dose curve; as a rule, active = well fitted curve in the direction sought with a large enough effect; inconclusive = small, poorly fitted or top-dose-only effect, or another doubt; inactive = no such curve, though single readings can be large; an effect the other way counts as inactive or inconclusive.

SMILES	ClpP mod	miR-21 reporter	Nrf2 inh	Nrf2 activator	A549 tox	p53 reactivation
CCCCCNC(=O)c1ccc2c(=O)n(CCOC)c(=O)[nH]c2c1	?	.	.	.	.	.
COCCn1c(=O)[nH]c2cc(C(=O)NCc3ccccc3)ccc2c1=O	14.1µM	.	?	.	.	.
CCS(=O)(=O)N1CCc2cc(C(=O)NCc3ccc(Cl)cc3)ccc21	.	.	.	.	.	/
CCc1ccc(NC(=O)CCn2c(=O)c3cccn3c3ccccc32)cc1	.	.	?	.	.	.
CCOc1ccc(CCNC(=O)c2ccc(Cn3c(=O)c4cccn4c4cccnc43)cc2)cc1	.	.	11.6µM	.	?	/
CCOc1ccc(CNC(=O)Cn2c(=O)c3cccn3c3ccccc32)cc1	.	.	16.4µM	.	.	.
O=C(NCCc1ccccc1)c1ccc(Cn2c(=O)c3cccn3c3cccnc32)cc1	.	.	.	.	.	/
CCOC(=O)c1cccc(NC(=O)Cn2c(=O)c3cccn3c3ccccc32)c1	.	.	11.6µM	.	.	/
CCc1ccc(NC(=O)Cn2c(=O)c3cccn3c3ccccc32)cc1	.	.	23.1µM!	.	.	.
O=C(Nc1ncn[nH]1)c1cc(S(=O)(=O)Nc2ccc(Cl)cc2)ccc1Cl	.	.	.	.	.	.
O=C(Nc1ncn[nH]1)c1ccc(Cl)c(S(=O)(=O)Nc2ccc(Cl)cc2)c1	31.6µM	.	.	.	.	.
COc1cccc(NC(=O)CCSc2nc(-c3ccco3)cc(C(F)(F)F)n2)c1	.	.	?	.	.	/
CCNC(=O)/C(=C\C=C\c1ccccc1)NC(=O)c1ccc(Br)o1	3.16µM	.	.	.	.	.
NC(=O)C12C(=O)NC(=O)C1(C(=O)O)C21CCCC1 (stereo not given)	.	/	.	.	.	/
COc1ccc(S(=O)(=O)Nc2ccc3c(c2)N(C(C)=O)CCC3)cc1OC	.	/	.	.	.	.
COc1ccc(S(=O)(=O)Nc2ccc3c(c2)N(C(C)=O)CCC3)cc1	.	/	11.6µM	.	.	.
CC(=O)N1CCc2cc(S(=O)(=O)Nc3ccc(C)cc3)ccc21	.	.	?	.	.	.
Cc1ccc(S(=O)(=O)Nc2ccc3c(c2)CCC3)cc1	.	.	11.6µM	.	?	.
COc1ccc(N/N=C(/C(C)=O)N2CCCc3ccccc32)cc1	.	.	6.51µM	.	.	.
CC(=O)N1CCc2cc(S(=O)(=O)Nc3ccc(C)c(C)c3)ccc21	/	/	14.6µM	/	.	/
Cc1ccc(S(=O)(=O)Nc2ccc3c(c2)CCC3)cc1C	.	.	.	.	.	.
Cc1c(Cl)cccc1NC(=O)CSc1nc(=O)n(Cc2ccccn2)c2c1CCC2	.	.	/	.	.	/
COc1ccc(CNC(=O)Cc2ccc(NC(=O)N3CCSc4ncccc43)cc2)cc1	.	.	.	.	.	/
Cc1cccc(-c2ccc3c(c2)C2CC3CCN2Cc2ccc3c(c2)OCO3)c1 (stereo not given)	.	/	.	.	.	/
C/C=C/C(=O)[C@@H](C)[C@@H](/C=C/C[Si](C)(C)C)c1ccccc1	/	/	.	/	.	/
SMILES	ClpP mod	miR-21 reporter	Nrf2 inh	Nrf2 activator	A549 tox	p53 reactivation
CCc1cccc(NS(=O)(=O)c2ccc3c(c2)CC(C)N3C(=O)C2CC2)c1 (stereo not given)	.	.	11.6µM	.	.	/
CSc1cccc(NS(=O)(=O)c2ccc3c(c2)CCN3C(C)=O)c1	.	.	?	.	.	.
CC(=O)N1CCc2cc(S(=O)(=O)Nc3cccc(C(F)(F)F)c3)ccc21	.	.	9.2µM	.	.	.
COc1cccc(NS(=O)(=O)c2ccc3c(c2)CCN3C(C)=O)c1	.	.	10.3µM	.	.	.
CCc1ccc(S(=O)(=O)Nc2ccc3c(c2)sc(=O)n3C)cc1	.	.	/	.	.	/
CCn1c(=O)sc2cc(NS(=O)(=O)c3ccc(C)cc3)ccc21	.	.	18.4µM	.	.	/
Cc1ccnc2ccc([N+](=O)[O-])cc12	.	/	/	/	/	/
